Target: human MOR (Homo sapiens, UniProt P35372)
Assay type: cell-based

Amino acid sequences for entries named in this document (tags omitted).
UniProt P35372, whole entry: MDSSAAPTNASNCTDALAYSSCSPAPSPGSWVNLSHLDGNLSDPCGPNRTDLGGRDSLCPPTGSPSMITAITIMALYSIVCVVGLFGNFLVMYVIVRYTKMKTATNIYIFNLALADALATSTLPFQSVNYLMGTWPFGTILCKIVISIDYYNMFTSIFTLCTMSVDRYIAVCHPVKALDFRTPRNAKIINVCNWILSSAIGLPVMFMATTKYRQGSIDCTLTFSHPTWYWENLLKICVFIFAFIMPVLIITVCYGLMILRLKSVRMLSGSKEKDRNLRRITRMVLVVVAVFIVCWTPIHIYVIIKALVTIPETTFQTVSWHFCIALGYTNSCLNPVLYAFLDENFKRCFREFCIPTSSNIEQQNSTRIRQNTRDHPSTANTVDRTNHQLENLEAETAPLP

**Q.** How did the “cAMP lgτ (operational efficacy, G-protein pathway)” value turn out when COc1ccc2c3c1O[C@H]1C(=O)CC[C@@]4(O)[C@@H](C2)N(C)CC[C@]314 [oxycodone, reference compound] was run?
**A.** Its value is 2.18.

Reference: article PMC9939367 (Acta Pharmaceutica Sinica. B, 2022)
